Measurements taken from patent US11672800B2, “Combination therapies with EHMT2 inhibitors” (Epizyme, Inc., priority 2017, dated 2023).

Tested on: MeWo
Assay: In vitro combination study of Compound 205 with a second agent, melanoma cell proliferation (CellTiter Glo, Loewe synergy); further: key: SYN Synergy; ADD Additivity
Assay type: cell-based
Settings: combination with Compound 205, 7 days pre-treatment with Compound 205, then 7 days co-treatment, ATP content, Loewe volume >1 synergy, -1 to 1 additivity
Protocol: On day 14 plates were developed for endpoint analysis using CellTiter Glo to measure ATP content, which was used as an indicator of cell viability. DMSO concentration was kept constant throughout the assay at 0.2% v/v.
All cells were maintained and cultured at 37° C., in a humidified atmosphere and 5% CO2.
Loewe volumes greater than 1 denoted synergy and volumes below −1 denoted antagonism. A value between −1 and 1 denoted additivity.

C#Cc1cccc(Nc2ncnc3cc(OCCOC)c(OCCOC)cc23)c1 [Erlotinib, N-(3-ethynylphenyl)-6,7-bis(2-methoxyethoxy)quinazolin-4-amine]
Combinatorial effect (Loewe method) of second agent with Compound 205, MeWo: SYN

Nc1ncn([C@H]2C[C@H](O)[C@@H](CO)O2)c(=O)n1 [Decitabine]
Combinatorial effect (Loewe method) of second agent with Compound 205, MeWo: SYN
